According to publication PMC7449170, “ATI-2173, a Novel Liver-Targeted Non-Chain-Terminating Nucleotide for Hepatitis B Virus Cure Regimens” (Antimicrobial Agents and Chemotherapy, 2020):

Experiments:
[1] = system: HBV genotype D; details: primary human hepatocytes, control compound
[2] = system: primary human hepatocytes

## peg-IFN-α2a: Pegylated interferon-α2a (positive control) obtained from Roche
[1]
  EC50, HBV DNA: 2 IU/ml
[2]
  CC50 (50% cytotoxic concentration): > 100 IU/ml
